Sequences of proteins named here, by UniProt entry; tags and fusion partners are left off.
UniProt Q09472, whole entry, looked up: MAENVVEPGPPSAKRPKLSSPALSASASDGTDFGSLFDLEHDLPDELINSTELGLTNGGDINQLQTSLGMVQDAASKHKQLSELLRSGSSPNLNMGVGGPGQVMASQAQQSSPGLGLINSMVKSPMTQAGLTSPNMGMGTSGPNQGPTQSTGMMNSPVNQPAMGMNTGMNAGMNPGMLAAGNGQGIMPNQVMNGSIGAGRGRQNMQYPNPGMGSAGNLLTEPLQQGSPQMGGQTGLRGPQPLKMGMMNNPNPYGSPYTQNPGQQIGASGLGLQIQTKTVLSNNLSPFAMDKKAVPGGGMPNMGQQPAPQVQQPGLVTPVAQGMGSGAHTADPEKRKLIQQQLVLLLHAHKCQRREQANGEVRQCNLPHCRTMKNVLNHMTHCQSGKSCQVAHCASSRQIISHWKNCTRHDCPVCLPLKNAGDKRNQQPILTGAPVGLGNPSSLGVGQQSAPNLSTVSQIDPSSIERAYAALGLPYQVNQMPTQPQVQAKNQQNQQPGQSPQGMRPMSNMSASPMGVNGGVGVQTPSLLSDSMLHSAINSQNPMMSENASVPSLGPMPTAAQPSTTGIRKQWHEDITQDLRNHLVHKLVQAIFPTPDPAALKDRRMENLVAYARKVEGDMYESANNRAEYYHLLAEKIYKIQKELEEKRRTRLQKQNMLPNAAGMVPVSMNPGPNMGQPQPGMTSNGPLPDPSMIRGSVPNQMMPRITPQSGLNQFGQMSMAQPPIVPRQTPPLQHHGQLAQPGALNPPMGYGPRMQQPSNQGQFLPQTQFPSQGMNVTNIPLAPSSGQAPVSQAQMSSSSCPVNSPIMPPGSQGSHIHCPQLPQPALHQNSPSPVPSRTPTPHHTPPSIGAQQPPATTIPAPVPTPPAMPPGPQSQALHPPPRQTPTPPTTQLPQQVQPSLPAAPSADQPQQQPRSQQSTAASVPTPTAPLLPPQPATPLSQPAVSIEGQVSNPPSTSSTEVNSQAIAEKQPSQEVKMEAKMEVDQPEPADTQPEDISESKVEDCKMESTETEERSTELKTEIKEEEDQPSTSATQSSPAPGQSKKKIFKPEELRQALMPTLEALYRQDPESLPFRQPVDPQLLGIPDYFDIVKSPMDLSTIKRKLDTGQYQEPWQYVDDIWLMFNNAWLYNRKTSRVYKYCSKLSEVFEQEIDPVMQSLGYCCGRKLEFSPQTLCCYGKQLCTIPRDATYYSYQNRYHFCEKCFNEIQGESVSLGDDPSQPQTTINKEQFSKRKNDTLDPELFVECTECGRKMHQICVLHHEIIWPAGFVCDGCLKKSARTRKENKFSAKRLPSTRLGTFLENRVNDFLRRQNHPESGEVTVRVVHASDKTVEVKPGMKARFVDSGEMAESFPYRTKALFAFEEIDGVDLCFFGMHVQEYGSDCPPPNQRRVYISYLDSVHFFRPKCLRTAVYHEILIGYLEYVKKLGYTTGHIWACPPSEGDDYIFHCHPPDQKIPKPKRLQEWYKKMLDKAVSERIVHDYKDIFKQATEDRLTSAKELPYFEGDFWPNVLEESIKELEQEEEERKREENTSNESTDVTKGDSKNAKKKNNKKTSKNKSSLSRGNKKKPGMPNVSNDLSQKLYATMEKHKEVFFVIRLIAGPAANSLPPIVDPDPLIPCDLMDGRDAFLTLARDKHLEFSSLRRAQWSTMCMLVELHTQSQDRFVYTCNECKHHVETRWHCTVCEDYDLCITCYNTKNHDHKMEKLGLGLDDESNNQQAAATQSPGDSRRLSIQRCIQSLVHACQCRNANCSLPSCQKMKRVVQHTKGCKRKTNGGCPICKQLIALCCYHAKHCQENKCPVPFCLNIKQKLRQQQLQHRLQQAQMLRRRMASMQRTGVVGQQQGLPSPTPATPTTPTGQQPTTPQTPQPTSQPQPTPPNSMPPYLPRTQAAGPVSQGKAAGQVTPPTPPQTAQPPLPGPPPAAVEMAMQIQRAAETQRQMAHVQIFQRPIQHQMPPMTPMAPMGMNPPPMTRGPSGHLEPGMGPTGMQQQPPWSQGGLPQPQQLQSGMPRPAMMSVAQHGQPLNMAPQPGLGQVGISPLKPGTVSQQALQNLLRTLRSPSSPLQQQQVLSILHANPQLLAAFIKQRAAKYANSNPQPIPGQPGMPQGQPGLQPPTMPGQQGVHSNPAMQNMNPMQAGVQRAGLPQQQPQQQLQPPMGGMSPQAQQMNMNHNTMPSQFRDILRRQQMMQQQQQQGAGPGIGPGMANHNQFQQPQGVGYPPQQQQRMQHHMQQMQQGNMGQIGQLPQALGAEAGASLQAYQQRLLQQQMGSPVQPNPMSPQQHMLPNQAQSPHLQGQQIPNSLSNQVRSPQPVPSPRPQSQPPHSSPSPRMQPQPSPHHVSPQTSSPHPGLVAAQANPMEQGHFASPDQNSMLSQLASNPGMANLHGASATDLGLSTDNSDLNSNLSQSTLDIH
UniProt Q92793, whole entry, looked up: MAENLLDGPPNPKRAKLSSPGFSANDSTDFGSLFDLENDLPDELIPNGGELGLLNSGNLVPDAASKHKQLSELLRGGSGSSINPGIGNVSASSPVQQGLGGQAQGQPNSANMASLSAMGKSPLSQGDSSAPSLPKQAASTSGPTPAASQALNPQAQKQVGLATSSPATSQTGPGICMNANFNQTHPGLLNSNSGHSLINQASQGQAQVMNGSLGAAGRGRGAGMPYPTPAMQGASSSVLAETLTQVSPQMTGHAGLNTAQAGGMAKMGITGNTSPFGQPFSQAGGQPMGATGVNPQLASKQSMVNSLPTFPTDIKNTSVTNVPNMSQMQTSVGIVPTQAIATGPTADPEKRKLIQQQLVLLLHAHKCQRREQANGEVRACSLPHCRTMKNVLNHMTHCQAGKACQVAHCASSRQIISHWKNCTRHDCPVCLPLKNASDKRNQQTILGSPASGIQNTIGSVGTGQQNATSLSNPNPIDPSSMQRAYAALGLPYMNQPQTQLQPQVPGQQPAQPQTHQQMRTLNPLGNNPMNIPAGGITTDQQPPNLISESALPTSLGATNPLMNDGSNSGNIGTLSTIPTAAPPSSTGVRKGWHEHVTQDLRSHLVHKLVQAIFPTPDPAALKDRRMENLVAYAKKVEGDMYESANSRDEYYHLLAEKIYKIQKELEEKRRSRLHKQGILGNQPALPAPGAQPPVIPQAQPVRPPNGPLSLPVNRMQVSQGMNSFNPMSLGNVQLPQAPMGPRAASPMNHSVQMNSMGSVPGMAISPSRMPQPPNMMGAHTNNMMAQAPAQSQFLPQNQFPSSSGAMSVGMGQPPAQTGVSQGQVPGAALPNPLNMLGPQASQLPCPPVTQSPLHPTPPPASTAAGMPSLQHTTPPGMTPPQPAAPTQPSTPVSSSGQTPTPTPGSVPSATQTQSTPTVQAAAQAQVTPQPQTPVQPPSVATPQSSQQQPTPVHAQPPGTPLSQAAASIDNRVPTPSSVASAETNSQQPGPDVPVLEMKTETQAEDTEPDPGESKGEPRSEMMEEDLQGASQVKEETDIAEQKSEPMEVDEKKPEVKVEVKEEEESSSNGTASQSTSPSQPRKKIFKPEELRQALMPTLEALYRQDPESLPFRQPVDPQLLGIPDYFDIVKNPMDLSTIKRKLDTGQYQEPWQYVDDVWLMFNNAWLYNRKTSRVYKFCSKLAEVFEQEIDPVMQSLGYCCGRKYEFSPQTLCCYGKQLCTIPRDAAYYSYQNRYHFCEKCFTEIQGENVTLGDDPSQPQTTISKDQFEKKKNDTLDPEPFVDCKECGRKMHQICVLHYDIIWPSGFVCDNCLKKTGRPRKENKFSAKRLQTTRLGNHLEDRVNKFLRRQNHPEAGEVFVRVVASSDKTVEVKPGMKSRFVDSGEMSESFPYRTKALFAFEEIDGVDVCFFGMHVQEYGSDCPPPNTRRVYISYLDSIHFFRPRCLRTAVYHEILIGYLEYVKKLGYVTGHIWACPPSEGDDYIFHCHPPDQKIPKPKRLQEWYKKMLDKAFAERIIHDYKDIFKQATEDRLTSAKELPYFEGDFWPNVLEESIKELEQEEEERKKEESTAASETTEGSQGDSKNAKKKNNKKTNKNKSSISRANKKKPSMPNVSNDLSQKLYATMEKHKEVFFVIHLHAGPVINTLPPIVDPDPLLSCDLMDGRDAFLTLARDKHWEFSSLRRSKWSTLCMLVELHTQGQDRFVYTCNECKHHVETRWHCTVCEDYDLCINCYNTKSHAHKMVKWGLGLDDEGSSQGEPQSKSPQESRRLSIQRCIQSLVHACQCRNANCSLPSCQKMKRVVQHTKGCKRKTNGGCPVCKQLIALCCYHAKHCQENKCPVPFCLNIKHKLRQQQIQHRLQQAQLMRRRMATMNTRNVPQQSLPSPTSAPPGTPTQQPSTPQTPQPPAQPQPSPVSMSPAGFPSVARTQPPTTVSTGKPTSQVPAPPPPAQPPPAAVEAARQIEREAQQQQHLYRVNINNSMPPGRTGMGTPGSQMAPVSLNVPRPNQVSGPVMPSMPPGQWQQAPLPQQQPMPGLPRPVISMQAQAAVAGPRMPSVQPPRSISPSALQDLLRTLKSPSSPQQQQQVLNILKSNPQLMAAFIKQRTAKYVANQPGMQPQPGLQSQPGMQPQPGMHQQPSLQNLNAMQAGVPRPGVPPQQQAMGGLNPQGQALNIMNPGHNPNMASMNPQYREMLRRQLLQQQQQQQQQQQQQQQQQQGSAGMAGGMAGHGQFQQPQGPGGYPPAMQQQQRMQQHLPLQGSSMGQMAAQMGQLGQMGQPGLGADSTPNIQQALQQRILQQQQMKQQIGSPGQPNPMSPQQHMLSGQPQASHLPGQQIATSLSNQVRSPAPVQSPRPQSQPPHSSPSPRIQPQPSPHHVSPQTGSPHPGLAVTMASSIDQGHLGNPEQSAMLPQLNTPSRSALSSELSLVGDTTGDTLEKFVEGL

In ChEMBL document CHEMBL4342520, “Discovery, Structure-Activity Relationship, and Biological Activity of Histone-Competitive Inhibitors of Histone Acetyltransferases P300/CBP” (J Med Chem, 2020):

Assays:
Conditions in all cases: 0.08 to 10 uM
[1] = molecular target: T1, CREB-binding protein/Histone acetyltransferase p300 (Homo sapiens) (UniProt Q09472+Q92793)
[2] = molecular target: T1, CREB-binding protein/Histone acetyltransferase p300 (Homo sapiens); remark: listed apart in the source
[3] = molecular target: T1, CREB-binding protein/Histone acetyltransferase p300 (Homo sapiens); remark: listed apart in the source

Measured: inhibition

CNC(=O)Nc1ccc2c(c1)CC[C@@]21OC(=O)N(CC(=O)N(Cc2ccc(F)cc2)[C@@H](C)C(F)(F)F)C1=O
active: [1] | [2] | [3]

The source made the active and inactive calls.
